Assay [1] has as its target T1, human GPR40 (Homo sapiens, UniProt O14842). Kind of assay: Inositol Phosphate Turnover (IP1) Assay 1. Particulars: read-out: Human IP1 Assay 1, EC50; HEK cells stably expressing human GPR40.
Assay [2] deals with T1, human GPR40. Briefly: FLIPR assay (agonist-induced calcium mobilization). Particulars: read-out: Human FLIPR EC50, nM or % activation (EC50 values); GPR40/CHO NFAT BLA cells. (In general: A change in cytosolic calcium serves as a functional read-out for many receptors and channels.)

Protein sequences, listed by entry. Tags and fused reporters are not part of them.
UniProt O14842, whole entry: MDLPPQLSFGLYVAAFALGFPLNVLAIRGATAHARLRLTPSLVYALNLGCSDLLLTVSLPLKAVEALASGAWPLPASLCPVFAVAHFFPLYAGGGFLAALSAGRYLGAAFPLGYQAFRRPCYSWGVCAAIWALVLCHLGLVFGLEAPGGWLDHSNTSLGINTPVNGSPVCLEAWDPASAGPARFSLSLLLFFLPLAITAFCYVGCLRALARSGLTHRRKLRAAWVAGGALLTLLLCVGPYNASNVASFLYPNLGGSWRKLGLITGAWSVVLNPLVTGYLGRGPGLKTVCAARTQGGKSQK

pEC50: −log10 of the molar value.

In the case of `CC#CC(CC(=O)O)c1ccc2c(c1)CCC(c1nc(-c3ccccc3C(F)(F)F)ccc1F)O2` (centres unmarked), on human GPR40 [1], the pEC50 is 6.35. Further, the EC50 on human GPR40 [2] was found to be 61 nM.

The term pEC50 denotes −log10 of the EC50, conventionally taken in molar units. In general, EC50 refers to the concentration needed to bring the measured effect to its halfway point.

(Values after patent publication US9840512B2, “Antidiabetic bicyclic compounds” (Merck Sharp & Dohme Corp., priority 2013, dated 2017).)
